Protein sequences, listed by entry. Tags and fused reporters are not part of them.
UniProt P35372, whole entry: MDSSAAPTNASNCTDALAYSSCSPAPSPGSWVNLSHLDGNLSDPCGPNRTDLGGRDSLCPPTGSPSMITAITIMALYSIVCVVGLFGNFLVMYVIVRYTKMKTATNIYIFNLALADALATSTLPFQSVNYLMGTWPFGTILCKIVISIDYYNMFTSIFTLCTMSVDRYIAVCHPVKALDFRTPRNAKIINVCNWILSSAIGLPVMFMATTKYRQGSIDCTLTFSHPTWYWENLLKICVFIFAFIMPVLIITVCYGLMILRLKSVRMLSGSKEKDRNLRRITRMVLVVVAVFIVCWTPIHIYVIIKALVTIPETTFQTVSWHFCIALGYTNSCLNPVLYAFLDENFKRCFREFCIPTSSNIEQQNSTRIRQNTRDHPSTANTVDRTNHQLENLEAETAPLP

In ChEMBL document CHEMBL2203245 (Bioorg Med Chem Lett, 2012):

How the values were obtained:
[1] = biological target: T1, Mu-type opioid receptor (Homo sapiens, UniProt P35372); experiment: Partial agonist activity at human mu opioid receptor expressed in CHO cells assessed as [35S]GTPgammaS binding after 60 mins by scintillation counting; type: functional, cell-based
[2] = biological target: T1, Mu-type opioid receptor; experiment: Displacement of [3H]DAMGO from human mu opioid receptor expressed in CHO cells after 60 mins by scintillation counting; type: cell-based
[3] = biological target: T1, Mu-type opioid receptor; experiment: Antagonist activity at human mu opioid receptor expressed in CHO cells assessed as inhibition of DAMGO-induced [35S]GTPgammaS binding after 60 mins by scintillation counting; type: functional, cell-based
[4] = organism: Homo sapiens; experiment: Selectivity ratio of Ki for human kappa opioid receptor to Ki for human mu opioid receptor
[5] = organism: Homo sapiens; experiment: Selectivity ratio of Ki for human delta opioid receptor to Ki for human mu opioid receptor
[6] = biological target: T1, Mu-type opioid receptor; experiment: Antagonist activity at human mu opioid receptor expressed in CHO cells assessed as inhibition of DAMGO-induced [35S]GTPgammaS binding after 60 mins by scintillation counting relative to untreated-control; type: functional, cell-based
[7] = biological target: T1, Mu-type opioid receptor; experiment: Partial agonist activity at human mu opioid receptor expressed in CHO cells assessed as [35S]GTPgammaS binding after 60 mins by scintillation counting relative to untreated-control; type: functional, cell-based

Row | Structure (SMILES) | Ratio Ki [4] | Ratio Ki [5] | Imax [6] [%] | Emax [7] [%] | also measured
1 | C[C@H]1[C@H]2Cc3ccc(C(=O)NCCc4ccc(-c5ccc(O)cc5)cc4)cc3[C@]1(C)CCN2CC1CC1 |  |  |  |  | EC50 [1]: 0.5 nM; Ki [2]: 0.0049 nM; IC50 [3]: 4.5 nM
2 | CC1C2Cc3ccc(C(=O)NCCc4ccc(-c5ccccc5O)cc4)cc3C1(C)CCN2CC1CC1 (racemic) | 375 | 43 |  |  | 
3 | CC1C2Cc3ccc(C(=O)NCCc4ccc(-c5ccc6c(c5)OCO6)cc4)cc3C1(C)CCN2CC1CC1 (racemic) |  |  | 75 | 29 | 
4 | COc1ccc2cc(CCNC(=O)c3ccc4c(c3)C3(C)CCN(CC5CC5)C(C4)C3C)ccc2c1 (racemic) | 7 | 34 |  |  | 
5 | COc1cccc(-c2ccc(CCNC(=O)c3ccc4c(c3)C3(C)CCN(CC5CC5)C(C4)C3C)cc2)c1 (racemic) |  |  | 75 | 25 | 
6 | CCOc1ccc(-c2ccc(CCNC(=O)c3ccc4c(c3)C3(C)CCN(CC5CC5)C(C4)C3C)cc2)cc1 (racemic) | 5 | 5 |  |  | 
